The record followed here is BindingDB's records for doi:10.1021/bi802035f (University of Florida, 2009).

This test deals with Carbonic anhydrase 9 (Homo sapiens, UniProt Q16790).

pKi: −log10 of the molar value.

The compound `NS(=O)(=O)c1nnc(-c2ccccc2Cl)s1` [5-(2-chlorophenyl)-1,3,4-thiadiazole-2-sulfonamide] showed a pKi of 9.00.
